Test results as given in paper PMC6834678.

Chains of the proteins cited; added tags and fusions are not shown. Where a name states a change or a piece, a line headed by the entry shows the natural chain unless it says otherwise. A line that says so, or that is headed by a name, gives the form on record, which may keep a tag or linker. Residues count along the entry.
UniProt P55899, 24-297: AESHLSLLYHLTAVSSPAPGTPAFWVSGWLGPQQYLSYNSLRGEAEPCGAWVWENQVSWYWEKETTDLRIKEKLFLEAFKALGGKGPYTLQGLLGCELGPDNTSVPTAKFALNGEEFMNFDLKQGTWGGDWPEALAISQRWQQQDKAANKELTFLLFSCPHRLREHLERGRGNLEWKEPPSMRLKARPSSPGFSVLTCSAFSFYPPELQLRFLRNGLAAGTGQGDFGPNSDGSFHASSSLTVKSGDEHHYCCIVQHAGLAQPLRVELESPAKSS
LS-IgG1 (Trastuzumab IgG1 with M428L/N434S in the Fc domain) (human), light, as listed by the source, chain 2 of 2: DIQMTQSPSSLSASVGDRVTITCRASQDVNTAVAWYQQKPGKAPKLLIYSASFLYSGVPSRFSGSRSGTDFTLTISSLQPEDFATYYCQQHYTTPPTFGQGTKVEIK

Columns and labels:
[1] = target: human FcγRIIIa V158 (monomeric) (human); test: SPR; monomeric Fc receptors; equivalent binding model
[2] = target: LS-IgG1 (Trastuzumab IgG1 with M428L/N434S in the Fc domain) (human); test: SPR; IgG1 variants immobilised on a CM5 chip (~500 RU, amine coupling); hFcRn:hβ2m dimer injected at 1000-40 nM in PBS, pH 5.8, 30 μL/min
[3] = target: DHS-IgG1 (Trastuzumab IgG1 with L309D/Q311H/N434S in the Fc domain) (human); test: as above
[4] = target: wt-IgG1 (Trastuzumab with the wild-type human IgG1 Fc domain) (human); test: as above
[5] = target: YTE-IgG1 (Trastuzumab IgG1 with M252Y/S254T/T256E in the Fc domain) (human); test: as above
[6] = target: human FcRn/human β2m complex (hFcRn:hβ2m dimer) (human) (UniProt P55899); test: SPR; hFcRn:hβ2m dimer immobilised at high density (4000 RU, amine coupling); antibodies injected at 800-50 nM in PBS, pH 7.4, 30 μL/min
[7] = target: human FcRn/human β2m complex (hFcRn:hβ2m dimer) (human) (UniProt P55899); test: SPR; hFcRn:hβ2m dimer immobilised at medium density (2000 RU, amine coupling); antibodies injected at 800-50 nM in PBS, pH 7.4, 30 μL/min

“DHS-IgG1 (Trastuzumab IgG1 with L309D/Q311H/N434S in the Fc domain) (antibody)” was tested, and the Kd [1] was 0.18 µM.

“human FcRn/human β2m complex (hFcRn:hβ2m dimer) (from UniProt P55899 24-297; P61769 21-119)” was tested, and the Kd [2] was 0.055 µM, the Kd [3] was 0.11 µM and the Kd [4] was 0.55 µM. It also gave a Kd [5] of 0.023 µM.

“LS-IgG1 (Trastuzumab IgG1 with M428L/N434S in the Fc domain) (antibody)” gave a Kd [6] of 0.567 µM, a Kd [1] of 0.52 µM and a Kd [7] of 0.946 µM.

Work on “wt-IgG1 (Trastuzumab with the wild-type human IgG1 Fc domain) (antibody)” yielded a Kd [1] of 0.17 µM.

Substance “YTE-IgG1 (Trastuzumab IgG1 with M252Y/S254T/T256E in the Fc domain) (antibody)” has a Kd [6] of 4.29 µM, a Kd [1] of 0.82 µM and a Kd [7] of 4.73 µM.
